{"source": "patent US20160016929A1", "about": "“PRO-DRUG COMPOUNDS” (PROXIMAGEN LIMITED, priority 2013, published 2016)", "assay": "Solubility in aqueous solutions (Table 3)", "details": "pH 5.5", "data": [{"compound": "CC(=O)c1ccc2c(c1)[C@H](NC(=O)c1ccc(F)c(Cl)c1)[C@H](OC(=O)OC[C@H](N)C(=O)O)C(C)(C)O2.Cl", "note": "[Example 5, (2S)-3-[({[(3S,4S)-6-Acetyl-4-[(3-chloro-4-fluorobenzene)amido]-2,2-dimethyl-3,4-dihydro-2H-1-benzopyran-3-yl]oxy}carbonyl)oxy]-2-aminopropanoic acid hydrochloride]", "values": [{"measurement": "Solubility", "result": "2 mg/mL (pH 5.5)"}]}]}
